Measured values as given in PubChem BioAssay AID1508611 (The Scripps Research Institute Molecular Screening Center, 2020).
The list shows a part of the results, in another mix than the full data. Activity calls are given as the source filed them.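 The calls were made as follows: active = mean percent activation in the counterscreen above 29.09%; inactive = the rest.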

The chains behind the UniProt entries cited, without tags or fusion partners. Where a name states a change or a piece, a line headed by the entry shows the natural chain unless it says otherwise.
UniProt Q8TDV5: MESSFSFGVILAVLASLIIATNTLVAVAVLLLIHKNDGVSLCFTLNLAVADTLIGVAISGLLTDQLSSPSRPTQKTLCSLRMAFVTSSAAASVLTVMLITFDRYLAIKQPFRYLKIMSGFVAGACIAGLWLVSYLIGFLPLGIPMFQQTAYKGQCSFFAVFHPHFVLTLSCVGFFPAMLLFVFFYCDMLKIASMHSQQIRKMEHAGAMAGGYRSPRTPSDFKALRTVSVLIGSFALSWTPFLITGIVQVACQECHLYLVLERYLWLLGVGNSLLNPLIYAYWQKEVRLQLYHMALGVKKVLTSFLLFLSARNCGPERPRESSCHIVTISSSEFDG

biological target: Glucose-dependent insulinotropic receptor (Homo sapiens) (UniProt Q8TDV5); test: GPR119 activators in beta-arrestin cells, counter-screen for GPR151 activator project, cell-based, PathHunter beta-arrestin, luminescence, triplicate (AID 1508611); conditions: 90 min, at 11.2 µM, stronger effect = higher value, 0 = compound-well median, 100 = enzyme-acceptor control;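 also: counterscreen on off-target GPR119 to flag nonselective hits from the GPR151 activator screen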

Compound | activation
O=C(Nc1cccc(F)c1)N(Cc1cccnc1)C1CCN(CCc2cccs2)CC1 | inactive: -6.5%
Cc1cc(Br)c(Nc2c([N+](=O)[O-])cc([N+](=O)[O-])c3nonc23)cc1[N+](=O)[O-] | inactive: -15.2%
